Data reported in ChEMBL document CHEMBL2062445, “Synthesis and nicotinic receptor activity of chemical space analogues of N-(3R)-1-azabicyclo[2.2.2]oct-3-yl-4-chlorobenzamide (PNU-282,987) and 1,4-diazabicyclo[3.2.2]nonane-4-carboxylic acid 4-bromophenyl ester (SSR180711)” (J Med Chem, 2012).

By UniProt entry, the sequences of proteins in these tests, tags left out. Residues count along the entry.
UniProt P36544, 23-502 limits assumed: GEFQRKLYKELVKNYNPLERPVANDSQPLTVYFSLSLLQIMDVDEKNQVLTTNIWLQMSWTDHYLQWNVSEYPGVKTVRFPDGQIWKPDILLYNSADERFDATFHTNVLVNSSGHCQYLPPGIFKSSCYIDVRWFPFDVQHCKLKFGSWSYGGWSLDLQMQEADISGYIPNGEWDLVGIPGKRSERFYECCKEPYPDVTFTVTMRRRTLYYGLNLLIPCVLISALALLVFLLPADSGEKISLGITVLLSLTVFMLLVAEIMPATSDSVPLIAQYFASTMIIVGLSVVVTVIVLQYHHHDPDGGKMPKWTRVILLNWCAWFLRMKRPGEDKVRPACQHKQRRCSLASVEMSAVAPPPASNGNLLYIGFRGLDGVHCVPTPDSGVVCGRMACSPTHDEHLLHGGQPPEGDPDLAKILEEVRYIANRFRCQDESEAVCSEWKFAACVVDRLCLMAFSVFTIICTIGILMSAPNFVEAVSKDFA

Biological target: Neuronal acetylcholine receptor subunit alpha-7 (Homo sapiens, UniProt P36544)
Experiment: Antagonist activity at human alpha7 nAChR expressed in Xenopus oocyte assessed as inhibition of ACh-induced current at 10 uM after 30 secs by electrophysiological assay
Assay type: functional

Work on `O=C(N[C@@H]1CCCC[C@H]1N1CCCCC1)C1COc2ccccc2O1` (stereo partly specified) yielded an inhibition of 67%.
